From US12187742B2 (XRAD Therapeutics, Inc., priority 2018, dated 2025)

By UniProt entry, the sequences of proteins in these tests, tags left out.
UniProt Q13315, whole entry: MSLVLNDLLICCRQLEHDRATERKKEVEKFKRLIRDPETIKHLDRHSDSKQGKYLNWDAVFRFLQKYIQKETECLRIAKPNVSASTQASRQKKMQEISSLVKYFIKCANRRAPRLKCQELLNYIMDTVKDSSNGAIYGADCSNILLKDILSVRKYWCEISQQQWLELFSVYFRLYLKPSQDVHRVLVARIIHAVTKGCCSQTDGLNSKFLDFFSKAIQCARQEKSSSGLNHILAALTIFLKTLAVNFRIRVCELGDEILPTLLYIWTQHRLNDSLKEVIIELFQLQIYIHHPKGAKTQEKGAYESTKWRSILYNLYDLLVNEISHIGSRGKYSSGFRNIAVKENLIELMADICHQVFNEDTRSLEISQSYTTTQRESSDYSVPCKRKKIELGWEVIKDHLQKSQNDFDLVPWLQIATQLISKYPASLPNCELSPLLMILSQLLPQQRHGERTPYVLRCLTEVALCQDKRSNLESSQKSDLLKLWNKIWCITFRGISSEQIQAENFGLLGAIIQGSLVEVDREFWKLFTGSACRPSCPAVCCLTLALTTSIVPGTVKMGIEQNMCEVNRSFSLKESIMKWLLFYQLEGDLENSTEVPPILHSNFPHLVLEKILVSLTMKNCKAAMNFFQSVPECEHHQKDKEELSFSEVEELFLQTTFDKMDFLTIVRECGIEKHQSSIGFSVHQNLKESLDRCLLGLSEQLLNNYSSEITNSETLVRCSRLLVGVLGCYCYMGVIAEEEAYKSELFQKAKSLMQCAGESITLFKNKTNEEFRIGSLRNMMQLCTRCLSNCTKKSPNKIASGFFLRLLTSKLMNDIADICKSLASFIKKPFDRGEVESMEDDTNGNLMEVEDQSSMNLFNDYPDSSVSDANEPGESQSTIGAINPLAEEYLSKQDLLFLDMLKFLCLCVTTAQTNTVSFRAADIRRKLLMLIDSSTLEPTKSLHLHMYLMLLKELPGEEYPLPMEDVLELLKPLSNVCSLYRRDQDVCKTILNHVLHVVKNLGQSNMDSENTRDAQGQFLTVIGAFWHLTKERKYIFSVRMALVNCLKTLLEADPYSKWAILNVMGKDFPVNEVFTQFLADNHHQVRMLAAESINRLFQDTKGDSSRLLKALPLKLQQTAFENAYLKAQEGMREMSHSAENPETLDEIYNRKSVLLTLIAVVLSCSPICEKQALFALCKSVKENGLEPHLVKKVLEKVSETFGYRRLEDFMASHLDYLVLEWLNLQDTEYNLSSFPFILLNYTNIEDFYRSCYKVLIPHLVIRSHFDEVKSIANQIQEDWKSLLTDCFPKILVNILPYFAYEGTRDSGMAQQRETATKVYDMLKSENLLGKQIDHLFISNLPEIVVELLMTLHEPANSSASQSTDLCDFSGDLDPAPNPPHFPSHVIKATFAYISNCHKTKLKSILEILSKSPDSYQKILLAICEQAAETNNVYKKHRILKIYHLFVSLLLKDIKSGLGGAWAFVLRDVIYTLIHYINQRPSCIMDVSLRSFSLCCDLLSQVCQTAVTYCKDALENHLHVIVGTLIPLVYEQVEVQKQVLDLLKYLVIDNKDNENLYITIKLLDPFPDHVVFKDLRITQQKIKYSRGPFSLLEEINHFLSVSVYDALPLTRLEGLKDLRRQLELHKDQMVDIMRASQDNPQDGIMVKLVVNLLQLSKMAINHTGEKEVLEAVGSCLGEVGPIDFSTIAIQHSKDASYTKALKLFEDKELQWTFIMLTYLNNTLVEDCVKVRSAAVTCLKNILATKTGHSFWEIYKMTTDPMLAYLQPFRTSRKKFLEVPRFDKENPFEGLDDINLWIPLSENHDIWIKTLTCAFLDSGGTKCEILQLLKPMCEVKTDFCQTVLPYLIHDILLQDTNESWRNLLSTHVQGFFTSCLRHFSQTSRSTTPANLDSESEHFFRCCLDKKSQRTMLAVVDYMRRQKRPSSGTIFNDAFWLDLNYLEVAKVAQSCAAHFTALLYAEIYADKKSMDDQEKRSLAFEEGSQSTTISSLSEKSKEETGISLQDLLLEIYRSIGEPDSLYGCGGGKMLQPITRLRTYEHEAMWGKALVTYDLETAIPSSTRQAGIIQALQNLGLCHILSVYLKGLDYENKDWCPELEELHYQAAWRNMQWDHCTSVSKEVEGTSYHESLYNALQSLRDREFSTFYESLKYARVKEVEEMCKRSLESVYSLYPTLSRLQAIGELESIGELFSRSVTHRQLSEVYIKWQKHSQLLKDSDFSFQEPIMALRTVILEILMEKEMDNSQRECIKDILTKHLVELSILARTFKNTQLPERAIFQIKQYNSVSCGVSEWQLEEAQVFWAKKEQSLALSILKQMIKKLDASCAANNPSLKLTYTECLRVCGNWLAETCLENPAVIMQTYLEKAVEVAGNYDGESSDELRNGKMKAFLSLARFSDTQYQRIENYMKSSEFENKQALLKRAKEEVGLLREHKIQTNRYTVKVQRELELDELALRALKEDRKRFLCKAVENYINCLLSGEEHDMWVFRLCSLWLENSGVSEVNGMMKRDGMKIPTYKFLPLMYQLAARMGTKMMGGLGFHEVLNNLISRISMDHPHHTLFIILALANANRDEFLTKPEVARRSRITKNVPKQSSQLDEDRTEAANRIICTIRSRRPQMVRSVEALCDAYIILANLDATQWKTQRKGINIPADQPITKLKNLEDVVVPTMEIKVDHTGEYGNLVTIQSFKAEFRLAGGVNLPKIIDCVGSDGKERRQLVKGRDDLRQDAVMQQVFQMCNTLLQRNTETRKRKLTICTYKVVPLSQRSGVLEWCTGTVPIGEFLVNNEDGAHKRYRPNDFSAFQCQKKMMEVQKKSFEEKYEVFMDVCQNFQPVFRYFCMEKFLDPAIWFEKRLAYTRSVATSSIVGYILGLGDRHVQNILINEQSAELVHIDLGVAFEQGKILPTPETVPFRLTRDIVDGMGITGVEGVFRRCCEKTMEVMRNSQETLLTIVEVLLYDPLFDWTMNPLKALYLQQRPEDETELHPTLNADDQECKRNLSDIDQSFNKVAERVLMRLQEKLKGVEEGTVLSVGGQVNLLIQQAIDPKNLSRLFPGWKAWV

Target: ATM (Homo sapiens (Human), UniProt Q13315)
Experiment: ATM in Cell Western Assay (pKAP1 in etoposide-treated MCF-7 cells)
Conditions: read-out: ATM (cell)

CN(C)CCCOc1ncc(-c2ccc3ncc4c(c3c2)C2(CNC2)C(=O)N4C)cc1NS(C)(=O)=O
IC50: > 100 nM
